Chains of the proteins cited; added tags and fusions are not shown. Residues count along the entry.
UniProt P00533, whole entry: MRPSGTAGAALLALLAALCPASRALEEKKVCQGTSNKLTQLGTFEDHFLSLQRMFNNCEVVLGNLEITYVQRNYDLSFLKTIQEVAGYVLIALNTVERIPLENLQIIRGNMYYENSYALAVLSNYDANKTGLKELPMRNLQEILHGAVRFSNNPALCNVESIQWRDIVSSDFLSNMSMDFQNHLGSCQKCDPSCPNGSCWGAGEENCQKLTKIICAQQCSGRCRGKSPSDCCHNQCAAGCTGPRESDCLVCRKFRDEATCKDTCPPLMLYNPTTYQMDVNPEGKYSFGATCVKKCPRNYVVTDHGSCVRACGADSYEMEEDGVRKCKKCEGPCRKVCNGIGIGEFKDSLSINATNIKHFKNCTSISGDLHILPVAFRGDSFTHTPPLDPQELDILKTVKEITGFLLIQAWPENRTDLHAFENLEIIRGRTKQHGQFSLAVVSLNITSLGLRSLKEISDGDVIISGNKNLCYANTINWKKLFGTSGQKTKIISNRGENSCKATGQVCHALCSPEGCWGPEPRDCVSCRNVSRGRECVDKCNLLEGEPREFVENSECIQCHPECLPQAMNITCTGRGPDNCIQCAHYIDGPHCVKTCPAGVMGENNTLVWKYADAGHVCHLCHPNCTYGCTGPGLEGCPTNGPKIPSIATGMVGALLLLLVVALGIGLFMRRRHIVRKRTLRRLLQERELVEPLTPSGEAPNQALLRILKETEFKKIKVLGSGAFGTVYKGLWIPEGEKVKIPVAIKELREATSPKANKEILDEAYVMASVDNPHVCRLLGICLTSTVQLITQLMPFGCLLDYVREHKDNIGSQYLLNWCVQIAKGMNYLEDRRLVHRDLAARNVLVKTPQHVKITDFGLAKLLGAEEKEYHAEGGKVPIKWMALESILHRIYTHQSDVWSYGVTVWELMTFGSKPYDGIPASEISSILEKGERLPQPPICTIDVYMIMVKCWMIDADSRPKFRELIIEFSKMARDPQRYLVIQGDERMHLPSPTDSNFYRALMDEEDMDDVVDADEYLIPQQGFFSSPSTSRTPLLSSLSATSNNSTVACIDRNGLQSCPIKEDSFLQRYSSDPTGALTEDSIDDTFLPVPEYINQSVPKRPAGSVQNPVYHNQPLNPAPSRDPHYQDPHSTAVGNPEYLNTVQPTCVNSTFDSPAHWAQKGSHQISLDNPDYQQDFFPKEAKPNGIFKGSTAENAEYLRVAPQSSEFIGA
UniProt P00533, 25-1210 T790M limits assumed: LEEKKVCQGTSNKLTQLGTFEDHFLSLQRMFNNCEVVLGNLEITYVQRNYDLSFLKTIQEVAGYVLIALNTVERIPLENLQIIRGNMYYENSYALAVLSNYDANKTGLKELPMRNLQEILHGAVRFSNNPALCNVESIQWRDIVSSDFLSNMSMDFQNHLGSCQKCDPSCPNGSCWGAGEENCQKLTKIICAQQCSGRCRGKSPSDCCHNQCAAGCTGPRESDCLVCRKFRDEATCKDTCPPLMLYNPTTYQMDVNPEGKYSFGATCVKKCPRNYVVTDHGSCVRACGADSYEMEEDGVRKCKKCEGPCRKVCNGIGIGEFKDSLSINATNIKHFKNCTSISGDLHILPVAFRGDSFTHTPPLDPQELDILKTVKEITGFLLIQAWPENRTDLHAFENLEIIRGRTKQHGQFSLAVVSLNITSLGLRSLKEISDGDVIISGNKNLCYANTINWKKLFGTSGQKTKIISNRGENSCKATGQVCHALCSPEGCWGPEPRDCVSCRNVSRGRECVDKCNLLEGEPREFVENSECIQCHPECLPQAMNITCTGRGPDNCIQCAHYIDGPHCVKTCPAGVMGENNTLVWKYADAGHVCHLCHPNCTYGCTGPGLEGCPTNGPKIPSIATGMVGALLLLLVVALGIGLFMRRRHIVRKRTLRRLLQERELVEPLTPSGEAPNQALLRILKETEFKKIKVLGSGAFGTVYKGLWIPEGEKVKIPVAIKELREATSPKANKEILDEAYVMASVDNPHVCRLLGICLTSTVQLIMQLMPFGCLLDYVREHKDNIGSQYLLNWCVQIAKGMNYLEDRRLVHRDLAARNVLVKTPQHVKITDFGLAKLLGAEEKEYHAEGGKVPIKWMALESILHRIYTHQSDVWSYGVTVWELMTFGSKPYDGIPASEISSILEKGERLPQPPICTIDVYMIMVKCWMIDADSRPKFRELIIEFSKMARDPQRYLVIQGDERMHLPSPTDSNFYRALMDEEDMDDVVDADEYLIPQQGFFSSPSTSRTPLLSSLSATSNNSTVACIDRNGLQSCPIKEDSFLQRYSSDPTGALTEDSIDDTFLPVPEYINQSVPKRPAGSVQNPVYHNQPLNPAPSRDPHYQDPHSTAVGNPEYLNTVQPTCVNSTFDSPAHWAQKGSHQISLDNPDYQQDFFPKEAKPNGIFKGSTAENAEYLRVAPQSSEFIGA

In ChEMBL document CHEMBL3351667, “A chemical tuned strategy to develop novel irreversible EGFR-TK inhibitors with improved safety and pharmacokinetic profiles” (J Med Chem, 2014):

Columns and labels:
NCI-H1975 = assay: cells; format: functional, cell-based; details: Homo sapiens, NCI-H1975, 48 h
[1] = target: Epidermal growth factor receptor (Homo sapiens, UniProt P00533);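 note: inhibition of wild-type EGFR read out by HTRF, with a 5 min incubation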
[2] = target: Epidermal growth factor receptor (Homo sapiens, UniProt P00533, T790M); format: protein assay
A-431 = assay: cells; format: functional, cell-based; details: Homo sapiens, A-431, 48 h

| Compound | IC50 (NCI-H1975) [nM] | IC50 [1] [nM] | IC50 [2] [nM] | IC50 (A-431) [nM] |
| --- | --- | --- | --- | --- |
| COc1cc2ncnc(Nc3ccc(F)c(Cl)c3)c2cc1NC(=O)/C(F)=C/CN1CCCCC1 | 760 | – | – | – |
| O=C(Nc1cc2c(Nc3ccc(F)c(Cl)c3)ncnc2cc1O[C@H]1CCOC1)/C(F)=C\CN1CCOCC1 | – | 1 | 42.9 | – |
| COc1cc2ncnc(Nc3ccc(F)c(Cl)c3)c2cc1NC(=O)/C(F)=C/CN(C)C | 410 | – | – | 550 |
| COc1cc2ncnc(Nc3ccc(F)c(Cl)c3)c2cc1NC(=O)/C(F)=C\CN1CCCCC1 | – | – | – | 680 |
| O=C(Nc1cc2c(Nc3ccc(F)c(Cl)c3)ncnc2cc1O[C@H]1CCOC1)/C(F)=C/CN1CCOCC1 | – | 0.26 | 21.3 | – |
| CCOc1cc2ncnc(Nc3ccc(OCc4ccccn4)c(Cl)c3)c2cc1NC(=O)/C(F)=C\CN(C)C | – | – | – | 980 |
| CCOc1cc2ncnc(Nc3ccc(OCc4ccccn4)c(Cl)c3)c2cc1NC(=O)/C(F)=C/CN(C)C | 640 | – | – | – |
